Yeast UUG start: modulators of start codon recognition fidelity in yeast; AID 602363; activity score, % at 18.7 µM; S. cerevisiae UUG-firefly luciferase reporter, luminescence/redox ratio; 0.13% of 350,000 active;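 active = replicate mean at a twofold rise or more, about +100% in these data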;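 note: firefly luciferase made from a UUG start codon reports start codon fidelity; reporter light over untreated wells divided by growth signal over untreated wells; some hits fall short of that in this replicate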
SR-BI HDL uptake: blocks mouse SR-BI lipid uptake from DiI-HDL; Q61009; ldlA[mSR-BI] CHO cells, DiI-HDL uptake fluorescence, 3 h; inhibition, % at 12.5 µM; 320,000 compounds, 0.96% hits;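 active = mean replicate inhibition of at least 70% and a set share of replicates each scoring 70 or more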;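 note: 0% = median of neutral control wells and 100% = median of positive control wells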
SR-BI DiI-HDL act: enhances SR-BI lipid uptake from DiI-HDL | CHO ldlA[mSR-BI] cells, DiI-HDL uptake fluorescence, 3 h; 100 = double the neutral-control signal | activation, % at 12.5 µM | 320,000 compounds, 0.096% hits | AID 504775;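 active = mean replicate activation of at least 60% and every replicate at or above 60%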;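 note: 0% = median plate neutral-control signal and 100% = twice that signal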
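Test system: SR-BI-overexpressing, LDLR-lacking CHO cells. Measured by: DiI fluorescence, bottom read. Medium: Ham's F12 with 0.5% BSA, HEPES 25 mM, pH 7.4. Timing: 3 h uptake period with compound, 37 °C.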
INS-1E GSIS act: GLuc luminescence reporter in INS-1E cells, primary screen for activators of glucose-dependent secretion of insulin; INS-1E GLuc reporter insulin secretion, 2-3 h; AID 743287; activation, % at 16.6 µM; 370,000 compounds, 0.61% hits;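 active = lowest replicate activation of at least 40%, so every replicate reaches that level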;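 note: 0% = median of neutral control wells and 100% = median of IBMX positive control wells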
An asterisk follows results filed as active; . = no result. A selection: hits, their analogues and other compounds. The true share with any hit is near 1.3%.

1. O=C(Nc1ccccc1)c1sc2cc(C(F)(F)F)cnc2c1-c1cccs1
2. CN(c1ccc(F)cc1)S(=O)(=O)c1ccc(Cl)c(C(=O)NCC2CCCO2)c1 (stereo unspecified)
3. Cc1cc(C)n(CC(=O)n2c(C)c(C)c3ccccc32)n1
4. Cc1cc(C)n(CC(=O)n2c3ccccc3c3ccccc32)n1
5. CN(C)c1nc(=NCc2cccs2)ss1
6. CC(SC(=S)N(C)Cc1cccs1)C(=O)O (stereo unspecified)
7. COc1ccccc1CNC(=O)C[C@@H]1CC[C@@H]2[C@H](COc3ccc(NS(=O)(=O)c4ccc(C)cc4)cc3C(=O)N2C)O1
8. OCCCNc1nc(-c2ccc(Cl)cc2)nc2ccccc12

Assay by compound,1,2,3,4,5,6,7,8
Yeast UUG start,8,-5,-19,0,.,.,.,-14
SR-BI HDL uptake,71*,2,.,4,6,-10,.,50
SR-BI DiI-HDL act,-71,-2,.,-4,-6,10,.,-50
INS-1E GSIS act,.,43*,.,53*,72*,6,-8,58*

Reprinted from the part before: 4 entries, then new ones.
5. CN(C)c1nc(=NCc2cccs2)ss1
6. CC(SC(=S)N(C)Cc1cccs1)C(=O)O (stereo unspecified)
7. COc1ccccc1CNC(=O)C[C@@H]1CC[C@@H]2[C@H](COc3ccc(NS(=O)(=O)c4ccc(C)cc4)cc3C(=O)N2C)O1
8. OCCCNc1nc(-c2ccc(Cl)cc2)nc2ccccc12
9. COCCCNc1nc(-c2ccc(Cl)cc2)nc2ccccc12
10. COCCNc1nc(-c2ccccc2)nc2ccccc12
11. COCCCNc1nc(-c2ccncc2)nc2ccccc12
12. COC(=O)[C@H]1[C@H](CO)[C@H]2Cn3c(ccc(-c4ccc(F)cc4)c3=O)[C@H]2N1Cc1ccccn1
13. CCSc1nc2cc(OC)c(OC)cc2c(=O)n1CC
14. C=CCn1c(O)c(N=NC(=O)CNC(=O)c2ccco2)c2ccccc21
15. CCC1(C)Cc2ccccc2-c2nc(SCC(N)=O)[nH]c(=O)c21 (stereo unspecified)
16. CCC1(C)Cc2ccccc2-c2nc(SC)[nH]c(=O)c21 (stereo unspecified)

Assay by compound,5,6,7,8,9,10,11,12,13,14,15,16
Yeast UUG start,.,.,.,-14,-6,.,-12,-7,8,.,-5,.
SR-BI HDL uptake,6,-10,.,50,86*,31,75*,.,.,-33,5,10
SR-BI DiI-HDL act,-6,10,.,-50,-86,-31,-75,.,.,33,-5,-10
INS-1E GSIS act,72*,6,-8,58*,5,36,.,-6,69*,42*,18,60*

17. C[C@H](CO)N1C[C@H](C)[C@@H](CN(C)C(=O)c2ccncc2)OCCCC[C@H](C)Oc2ccc(NS(=O)(=O)c3cn(C)cn3)cc2C1=O
18. C[C@H]1CN([C@@H](C)CO)C(=O)c2cc(NC(=O)Cn3cnnn3)ccc2O[C@H]1CN(C)Cc1ccc(-c2ccccc2)cc1
19. COc1ccc(CC(=O)Nc2ccc(-c3cn4ccc(C)cc4n3)cc2)cc1
20. COc1ccc(CC(=O)Nc2ccc(-c3cn4cccc(C)c4n3)cc2)cc1OC
21. COc1ccc(-c2nc(C#N)c(NCc3ccc(F)cc3)o2)cc1OC
22. COc1cc2ccccc2cc1C(=O)NC1CCC(C)CC1 (stereo unspecified)
23. COc1cc2ccccc2cc1C(=O)NC1CCCC1
24. OC[C@H]1Nc2ccc(C#Cc3ccccc3)cc2[C@@H]2[C@H]1CCN2Cc1nccs1

Assay by compound,17,18,19,20,21,22,23,24
Yeast UUG start,2,4,.,2,2,-4,9,-19
SR-BI HDL uptake,.,.,83*,66,74*,71*,34,.
SR-BI DiI-HDL act,.,.,-83,-66,-74,-71,-34,.
INS-1E GSIS act,6,18,21,.,.,-41,.,14

25. Cc1cc([N+](=O)[O-])ccc1N
26. Cc1cc([N+](=O)[O-])ccc1NC(=O)Nc1ccccc1F
27. CCOC(=O)Nc1ccc([N+](=O)[O-])cc1C
28. C[C@@H]1CCCCO[C@H](CN(C)S(=O)(=O)c2cccs2)[C@@H](C)CN([C@@H](C)CO)C(=O)c2cc(NS(=O)(=O)c3ccccc3)ccc2O1
29. C[C@]12C[C@H](O)[C@H]3[C@@H](CCC4=CC(=O)CC[C@@]43C)[C@@H]1CC[C@@H]2C(=O)CO
30. CC(=O)[C@H]1CC[C@H]2[C@@H]3CCC4=CC(=O)CC[C@]4(C)[C@H]3[C@H](O)C[C@]12C
31. O=C(CC1c2ccccc2Oc2ccccc21)Nc1ccccc1C(F)(F)F
32. CC(O)c1nc2ccccc2n1C1CCCCC1 (stereo unspecified)

Assay by compound,25,26,27,28,29,30,31,32
Yeast UUG start,.,.,-11,14,-10,-24,.,-28
SR-BI HDL uptake,-3,94*,12,.,-6,7,-22,-28
SR-BI DiI-HDL act,3,-94,-12,.,87*,16,22,28
INS-1E GSIS act,42*,-2,2,-1,.,-15,102*,63*

33. O=C(O)C(Cc1ccc(O)cc1)N1C(=O)c2ccccc2C1=O (stereo unspecified)
34. O=C(O)C(Cc1ccccc1)N1C(=O)c2ccccc2C1=O (stereo unspecified)
35. CCOc1cc(C2C3=C(CCCC3=O)OC3=C2C(=O)CCC3)cc([N+](=O)[O-])c1O
36. C[C@H]1CN([C@@H](C)CO)C(=O)c2cc(-c3cccnc3)cnc2O[C@H]1CN(C)C(=O)C1CCOCC1
37. CC1=C(C)/C(=N\OS(=O)(=O)c2ccc(C)cc2)C=CC1=O
38. CC1=C/C(=N\OS(=O)(=O)c2ccccc2)C(C(C)C)=CC1=O
39. CC1=C/C(=N\OS(=O)(=O)c2ccccc2)C(C)=CC1=O
40. O=C(c1cnccn1)N1CC(=O)N2[C@H](C1)[C@@H](c1ccc(C#CC3CC3)cc1)[C@@H]2CO

Assay by compound,33,34,35,36,37,38,39,40
Yeast UUG start,1,-41,.,-9,.,.,-42,.
SR-BI HDL uptake,1,-5,40,.,91*,83*,79*,.
SR-BI DiI-HDL act,-1,5,-40,.,-91,-83,-79,.
INS-1E GSIS act,48*,.,58*,11,225*,.,250,18

41. COc1cc(NC(=O)COc2cccc3c2OC(C)(C)C3)cc(OC)c1OC
42. CC(=O)Nc1ccc(NC(=O)COc2cccc3c2OC(C)(C)C3)cc1
43. COc1ccc(NC(=O)/C(Cl)=C(/Cl)S(=O)Cc2ccc(Cl)cc2)cn1 (stereo unspecified)
44. O=C1N[C@@H](Cc2ccccc2)COCc2cnnn2CC[C@@H]1Cc1cccc(F)c1
45. Cc1noc(C)c1S(=O)(=O)Nc1ccc2c(c1)C(=O)N([C@@H](C)CO)C[C@H](C)[C@H](CN(C)Cc1ccccc1)OCCCC[C@@H](C)O2
46. Cc1cccc(C(=O)Oc2c(Br)cc(Br)cc2/C=N/NC(=O)c2ccncc2)c1
47. Cc1cc(C(=O)N/N=C/c2cc(Br)cc(Br)c2OC(=O)c2cccc(F)c2)n[nH]1
48. C[C@@H]1CN([C@H](C)CO)C(=O)c2cccc(NC(=O)C3CC3)c2O[C@H]1CN(C)S(=O)(=O)c1ccc(F)cc1

Assay by compound,41,42,43,44,45,46,47,48
Yeast UUG start,-18,-9,.,.,31,-6,.,11
SR-BI HDL uptake,88*,31,27,.,.,-11,122*,.
SR-BI DiI-HDL act,-88,-31,-27,.,.,11,-121,.
INS-1E GSIS act,-21,14,46*,14,-14,10,1,15

49. CCCOc1ccc(-c2c(C(=O)N/N=C/c3cccs3)nnn2-c2nonc2N)cc1
50. CCCOc1ccc(-c2c(C(=O)N/N=C/c3ccc(C)o3)nnn2-c2nonc2N)cc1
51. CCOc1ccc(-c2c(C(=O)N/N=C/c3ccc(C)o3)nnn2-c2nonc2N)cc1
52. CCCOc1ccc(-c2c(C(=O)N/N=C/c3ccncc3)nnn2-c2nonc2N)cc1
53. CCCOc1ccc(-c2c(C(=O)N/N=C/c3ccc(OCC)cc3)nnn2-c2nonc2N)cc1
54. C[C@@H]1CN([C@H](C)CO)C(=O)c2cc(NC(=O)CCN3CCOCC3)ccc2O[C@H]1CN(C)C(=O)NC1CCCCC1

Assay by compound,49,50,51,52,53,54
Yeast UUG start,-13,-17,-22,-8,11,6
SR-BI HDL uptake,73*,78*,76*,39,62,.
SR-BI DiI-HDL act,-73,-78,-76,-39,-62,.
INS-1E GSIS act,.,-7,7,1,-1,2
